Amino acid sequences for entries named in this document (tags omitted). Residues count along the entry.
UniProt P23458, whole entry: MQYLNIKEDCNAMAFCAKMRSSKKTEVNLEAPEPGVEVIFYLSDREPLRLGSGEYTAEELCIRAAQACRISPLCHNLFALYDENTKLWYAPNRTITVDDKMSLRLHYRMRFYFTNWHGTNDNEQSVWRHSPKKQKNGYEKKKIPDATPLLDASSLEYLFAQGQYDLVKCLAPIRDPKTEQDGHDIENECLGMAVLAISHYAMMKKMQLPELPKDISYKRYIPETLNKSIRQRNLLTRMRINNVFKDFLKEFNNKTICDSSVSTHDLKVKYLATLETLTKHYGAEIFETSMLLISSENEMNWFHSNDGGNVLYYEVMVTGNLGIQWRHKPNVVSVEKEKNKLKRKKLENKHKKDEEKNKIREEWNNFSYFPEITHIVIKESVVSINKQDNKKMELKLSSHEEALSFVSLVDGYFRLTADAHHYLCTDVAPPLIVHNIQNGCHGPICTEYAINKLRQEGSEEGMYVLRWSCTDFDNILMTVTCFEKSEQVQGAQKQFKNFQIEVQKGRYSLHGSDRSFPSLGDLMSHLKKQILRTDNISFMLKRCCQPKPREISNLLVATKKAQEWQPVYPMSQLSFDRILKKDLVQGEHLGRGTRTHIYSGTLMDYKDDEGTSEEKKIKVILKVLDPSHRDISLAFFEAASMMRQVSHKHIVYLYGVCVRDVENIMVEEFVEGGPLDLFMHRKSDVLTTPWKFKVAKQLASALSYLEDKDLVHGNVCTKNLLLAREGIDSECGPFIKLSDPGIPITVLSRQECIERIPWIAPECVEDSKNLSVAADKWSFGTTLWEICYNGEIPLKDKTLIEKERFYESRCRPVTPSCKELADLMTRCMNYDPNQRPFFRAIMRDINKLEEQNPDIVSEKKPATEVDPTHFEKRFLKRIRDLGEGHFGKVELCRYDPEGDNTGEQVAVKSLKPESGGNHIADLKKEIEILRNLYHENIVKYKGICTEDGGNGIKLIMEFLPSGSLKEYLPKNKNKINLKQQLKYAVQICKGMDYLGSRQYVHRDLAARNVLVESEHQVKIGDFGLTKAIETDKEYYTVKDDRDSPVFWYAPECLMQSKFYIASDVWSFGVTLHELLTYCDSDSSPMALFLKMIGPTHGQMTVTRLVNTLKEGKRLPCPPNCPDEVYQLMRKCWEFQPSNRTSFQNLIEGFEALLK
UniProt O60674, 826-1132 limits assumed: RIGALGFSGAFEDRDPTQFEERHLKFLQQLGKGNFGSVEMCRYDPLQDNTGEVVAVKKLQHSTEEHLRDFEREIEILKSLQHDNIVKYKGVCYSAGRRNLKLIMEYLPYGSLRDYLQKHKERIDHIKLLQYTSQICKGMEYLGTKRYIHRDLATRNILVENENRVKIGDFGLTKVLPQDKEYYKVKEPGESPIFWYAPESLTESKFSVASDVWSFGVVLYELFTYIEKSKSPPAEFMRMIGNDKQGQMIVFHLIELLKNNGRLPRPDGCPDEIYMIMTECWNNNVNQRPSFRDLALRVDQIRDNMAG
UniProt P52333, 795-1124 limits assumed: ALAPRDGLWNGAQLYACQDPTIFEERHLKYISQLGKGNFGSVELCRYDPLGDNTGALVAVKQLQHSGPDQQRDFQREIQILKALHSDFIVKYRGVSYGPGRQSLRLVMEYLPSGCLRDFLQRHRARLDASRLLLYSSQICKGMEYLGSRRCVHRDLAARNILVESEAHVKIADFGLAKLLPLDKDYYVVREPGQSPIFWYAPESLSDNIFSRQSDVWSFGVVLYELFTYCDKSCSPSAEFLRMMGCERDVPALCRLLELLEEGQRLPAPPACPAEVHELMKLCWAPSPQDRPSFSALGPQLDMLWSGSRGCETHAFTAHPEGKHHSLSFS

In US20240368161A1, “CYCLOPROPANECARBOXAMIDE-CONTAINING COMPOUNDS AND APPLICATION THEREOF” (CGENETECH (SUZHOU, CHINA) CO., LTD., priority 2022, published 2024):

Key:
Type in all cases: biochemical
JAK1 = JAK1 (Homo sapiens (Human), UniProt P23458); test: JAK1 kinase inhibitory activity determination (HTRF Kinase-TK); conditions: read-out: JAK1 IC50; JAK1 0.32 ng/μL, ATP 4 μM, substrate 1 μM, 4 h
JAK2 = JAK2 (Homo sapiens (Human), UniProt O60674); test: JAK2 kinase inhibitory activity determination (HTRF Kinase-TK); conditions: read-out: JAK2 IC50; JAK2 0.008 ng/μL, ATP 4 μM, substrate 1 μM, 2 h
JAK3 = JAK3 (Homo sapiens (Human), UniProt P52333); test: JAK3 kinase inhibitory activity determination (HTRF Kinase-TK); conditions: read-out: JAK3 IC50; JAK3 0.1 ng/μL, ATP 3 μM, substrate 1 μM, 3 h

SMILES	IC50 (JAK1) [nM]	IC50 (JAK2) [nM]	IC50 (JAK3) [nM]
O=C(Nc1cn2c(-c3ccc(CN4CCS(=O)(=O)CC4)cc3)cccc2n1)[C@H]1C[C@@H]1F (relative stereo) [Compound 22-2]	279	102	
O=C(Nc1nc2cccc(-c3ccc(CN4CCS(=O)(=O)CC4)cc3)n2n1)[C@H]1C[C@@H]1F (relative stereo) [Compound 23-1]	145	1590	> 10000
O=C(Nc1nc2cccc(-c3ccc(CN4CCS(=O)(=O)CC4)cc3)n2n1)[C@H]1C[C@@H]1F (relative stereo) [Compound 23-2]	199	873	> 10000
